Measurements reported in US8268635B2, “Methods of identifying agents that selectively activate p38 and/or NKkB signaling” (priority 2006, dated 2012).

What was measured:
[1] = test system: JNK; experiment: JNK activation in neutrophils in suspension; assay type: cell-based, human; conditions: 15 min; TNF 100 U/ml, TNF70-80 10 μM, anisomycin 2.5 μg/ml
Excerpt: The blots were stripped and reprobed with anti-JNK1 antibody which detected the p46-kDa JNK1 isotype in each lane. […] The cells were lysed and the lysate assessed by western blot analysis for the level of dual-phosphorylated ERK1/ERK2 (top panel) and ERK2 protein (bottom panel). […] The level of myelin basic protein phosphorylation was quantitated by an Instant Imager. Results presented (a and b) are from one experiment, representative of three-four experiments, each conducted using cells from a different donor.
Neutrophils were prepared from peripheral blood of healthy donors by a rapid single-step technique (Kumaratilake, L. M., Rathjen, D. A., Mack, P., Widmer, F., Prasertsiriroj, V., and Ferrante, A. (1995) J. Clin. Invest. 95: 2315-2323) using Hypaque-Ficoll and according to the institution's guidelines on human ethics. The preparations of neutrophils were routinely of >99% viability and >98% purity. […]
Western blot analysis was conducted as described previously (Hii, C. S., Huang, Z. H., Bilney, A., Costabile, M., Murray, A. W., Rathjen, D. A., Der, C. J., and Ferrante, A. (1998) J. Biol. Chem. 273: 19277-19282). […] The amounts of dually phosphorylated ERK1 and ERK2, phospho-JNK and NFκB p65 subunit were detected using rabbit anti-active ERK, mouse anti-phospho JNK and rabbit anti-NFκB antibody, respectively. […]

[2] = test system: p38; experiment: p38 activity in HUVEC (immunoprecipitation, myelin basic protein substrate); assay type: cell-based, human; conditions: 5 min; TNF 1,000 U/ml, peptides 10 μM
Method: The cells were lysed, and JNK activity was assayed using GST-jun (1-79) as a substrate. The data is presented as means+−sem of 3 experiments. […] The cells were lysed and the level of dual-phosphorylated ERK1/ERK2 was assessed by western blot analysis using the anti-ACTIVE ERK antibody (top panel). The blot was stripped and re-probed with an anti-ERK2 antibody (lower panel) to compare the level of ERK2 protein. The results are representative of 3 experiments, each conducted with cells from a different cord. […] The level of myelin basic protein phosphorylation was quantitated by an Instant Imager. Results are presented as the means+−sem of 3 experiments. Statistical analysis: significant difference between control and stimulated cells, *p<0.05. […]
KHS (hereon referred to as “GCKR”) activity was assayed as described previously using myelin basic protein as a substrate (Shi, C. S., Leonardi, A., Kyriakis, J., Siebenlist, U., and Kerhl, J. H. (1999) J. Immunol. 163: 3279-3285). ASK-1 activation was determined in immunoprecipitates of ASK-1 by autophosphorylation (Kyriakis, J. M., and Auruch, J. (2001) Physiol. Rev. 81: 807-869). p38 and ERK activities were determined as described using myelin basic protein as a substrate (Hii, C. S., Huang, Z. H., Bilney, A., Costabile, M., Murray, A. W., Rathjen, D. A., Der, C. J., and Ferrante, A. (1998) J. Biol. Chem. 273: 19277-19282). […]

TNF: Human recombinant TNF produced by Genentech, Inc.
activity/phosphorylation of JNK in neutrophils in suspension [1]: neither TNF nor TNF70-80 stimulated the activity of either JNK or ERK
activity of p38 in HUVEC [2]: stimulated the activity of p38
